Consider 1 compound from article PMC7330163 (Pharmacology Research & Perspectives, 2020).

The data set can be described thus: Single-dose oral pharmacokinetics in dog. It is filed as in vivo. The conditions noted are these: male, Beagle, plasma, 1 mg/kg.

Compound `CCCNS(=O)(=O)Nc1ncnc(OCCOc2ncc(Br)cn2)c1-c1ccc(Br)cc1` [macitentan] gave a bioavailability of 74%.
